Source: patent US20080103162A1, “Antipruritics” (priority 2001, published 2008)

System: male ddY mice
Test: compound 48/80-induced scratching behavior, intravenous administration (Test Example 1)
Format: in vivo
Conditions: intravenously administered five minutes before compound 48/80 (50 μg/0.1 ml, subcutaneous, back), FIG. 1 to FIG. 3

CCn1c(=O)n([C@@H]2CCN(CC3CCCCCCC3)C[C@H]2CO)c2ccccc21.Cl
scratching behavior suppressing effect (number of scratching behavior for 30 minutes): strong scratching behavior suppressing effect
